One molecule from paper PMC5228031, “CDK4/6-dependent activation of DUB3 regulates cancer metastasis through SNAIL1” (Nature Communications, 2017) can be followed below.

For the assay, the target named is T1, GST-DUB3 (UniProt Q6R6M4 1-530).
T1 construct: cloned into pGEX4T-1; also called GST-DUB3 WT; source: bacterial expressed, purified recombinant
T1 sequence (looked up): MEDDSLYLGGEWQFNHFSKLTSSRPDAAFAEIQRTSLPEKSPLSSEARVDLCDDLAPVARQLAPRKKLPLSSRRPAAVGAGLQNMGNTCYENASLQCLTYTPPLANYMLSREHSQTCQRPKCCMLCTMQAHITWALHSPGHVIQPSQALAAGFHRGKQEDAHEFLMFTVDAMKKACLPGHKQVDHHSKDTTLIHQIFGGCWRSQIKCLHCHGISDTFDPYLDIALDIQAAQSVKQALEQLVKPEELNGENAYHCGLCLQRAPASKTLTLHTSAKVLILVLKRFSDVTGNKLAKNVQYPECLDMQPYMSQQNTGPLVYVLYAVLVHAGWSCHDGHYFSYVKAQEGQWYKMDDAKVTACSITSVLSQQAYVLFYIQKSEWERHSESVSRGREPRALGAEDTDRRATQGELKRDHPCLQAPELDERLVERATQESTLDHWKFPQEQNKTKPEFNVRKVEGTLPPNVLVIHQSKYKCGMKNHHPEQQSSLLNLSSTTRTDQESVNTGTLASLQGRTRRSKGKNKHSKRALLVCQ
Briefly: pull-down; purified recombinant GST or GST fusion protein and His-tagged protein incubated in vitro. As to conditions: both partners purified.

B1: His-SNAIL1 (natural protein, UniProt O95863 1-264, looked up)
chain: MPRSFLVRKPSDPNRKPNYSELQDSNPEFTFQQPYDQAHLLAAIPPPEILNPTASLPMLIWDSVLAPQAQPIAWASLRLQESPRVAELTSLSDEDSGKGSQPPSPPSPAPSSFSSTSVSSLEAEAYAAFPGLGQVPKQLAQLSEAKDLQARKAFNCKYCNKEYLSLGALKMHIRSHTLPCVCGTCGKAFSRPWLLQGHVRTHTGEKPFSCPHCSRAFADRSNLRAHLQTHSDVKKYQCQACARTFSRMSLLHKHQESGCSGCPR
notes: cloned into PET28A; also called recombinant His-SNAIL1; source: purified recombinant
Regarding B1, the binding result was “binds”.
